For this assay, the target named is IDO1 (Homo sapiens, UniProt P14902). The assay can be described thus: IDO1 Cellular Assay in HeLa Cells Stimulated with IFNγ. The class given is cell-based. The settings on record: HeLa cells stimulated with IFNγ 100 ng/mL, about 48 hours.

The chains behind the UniProt entries cited, without tags or fusion partners.
UniProt P14902, whole entry: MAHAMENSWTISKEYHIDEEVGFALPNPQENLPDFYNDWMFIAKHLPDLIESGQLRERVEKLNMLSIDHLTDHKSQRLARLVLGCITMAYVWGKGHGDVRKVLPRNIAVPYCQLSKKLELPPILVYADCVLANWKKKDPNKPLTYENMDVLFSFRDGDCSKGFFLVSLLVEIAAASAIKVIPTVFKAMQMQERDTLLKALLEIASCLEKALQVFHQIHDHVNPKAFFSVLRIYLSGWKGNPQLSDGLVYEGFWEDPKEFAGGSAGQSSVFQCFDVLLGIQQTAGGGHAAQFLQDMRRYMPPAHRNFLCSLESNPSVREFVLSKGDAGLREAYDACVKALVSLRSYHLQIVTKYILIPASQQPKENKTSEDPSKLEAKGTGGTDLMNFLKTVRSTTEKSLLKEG

Where a name gives a salt, the structure may show the parent alone.

The term EC50 denotes the concentration that produces a half-maximal response. A higher EC50 goes with lower potency in that assay. Take `C[C@@H]1CN(C(=O)c2nn(CC(=O)N3CCC(Oc4ccc(Br)cc4)CC3)c3c2CCC3)C[C@H](C)O1` [Example 97, 1-[4-(4-bromophenoxy)piperidin-1-yl]-2-{3-[(2R,6S)-2,6-dimethylmorpholine-4-carbonyl]-5,6-dihydrocyclopenta[c]pyrazol-1(4H)-yl}ethan-1-one]: it took 0.00947 µM to reach a half-maximal effect (EC50). `Cc1cc(C)c(C)c(OC2CCN(C(=O)Cn3nc(C(=O)N4C[C@@H](C)O[C@@H](C)C4)c4c3CCC4)CC2)c1` [Example 152, 2-{3-[(2R,6S)-2,6-dimethylmorpholine-4-carbonyl]-5,6-dihydrocyclopenta[c]pyrazol-1(4H)-yl}-1-[4-(2,3,5-trimethylphenoxy)piperidin-1-yl]ethan-1-one] yielded an EC50 of 0.0354 µM. The compound `Cc1ccccc1OC1CCN(C(=O)Cn2nc(C(=O)N3CCC(OCCO)CC3)c3c2CCC3)CC1` [Example 19, 2-(3-(4-(2-hydroxyethoxy)piperidine-1-carbonyl)-5,6-dihydrocyclopenta[c]pyrazol-1(4H)-yl)-1-(4-(o-tolyloxy)piperidin-1-yl)ethanone] returned an EC50 of 0.00162 µM.

For the compound `O=C(c1nn(CC(=O)N2CCC(Oc3ccccc3Cl)C3CC32)c2c1[C@@H]1C[C@@H]1C2)N1CCC(OCCO)CC1` (single isomer, unassigned) [Example 171], the EC50 was 0.00177 µM. To `O=C(Cn1nc(C(=O)N2CC[C@H](O)[C@H](F)C2)c2c1CCC2)N1CCC(C(F)(F)c2ccccc2)CC1` [Example 175, 1-(4-(Difluoro(phenyl)methyl)piperidin-1-yl)-2-(3-((3R,4S)-3-fluoro-4-hydroxypiperidine-1-carbonyl)-5,6-dihydrocyclopenta[c]pyrazol-1(4H)-yl)ethanone] belongs 0.118 µM.

In turn, `Cc1ccccc1OC1CCN(C(=O)Cn2nc(C(=O)N3CCC(O)(C(F)F)CC3)c3c2CCCC3)CC1` [Example 22, 2-(3-(4-(difluoromethyl)-4-hydroxypiperidine-1-carbonyl)-4,5,6,7-tetrahydro-1H-indazol-1-yl)-1-(4-(o-tolyloxy)piperidin-1-yl)ethanone] registered an EC50 of 0.00183 µM. To `CC(C)c1ccccc1OC1CCN(C(=O)Cn2nc(C(=O)N3C[C@@H](C)O[C@@H](C)C3)c3c2CCC3)CC1` [Example 113, 2-{3-[(2R,6S)-2,6-dimethylmorpholine-4-carbonyl]-5,6-dihydrocyclopenta[c]pyrazol-1(4H)-yl}-1-{4-[2-(propan-2-yl)phenoxy]piperidin-1-yl}ethan-1-one] belongs 0.261 µM; to `C[C@H]1C[C@H](Oc2ncccc2Cl)CCN1C(=O)Cn1nc(C(=O)N2CC[C@@H](O)[C@@H](F)C2)c2c1CCC2` [Example 70, 1-((2S,4R)-4-((3-chloropyridin-2-yl)oxy)-2-methylpiperidin-1-yl)-2-(3-((3S,4R)-3-fluoro-4-hydroxypiperidine-1-carbonyl)-5,6-dihydrocyclopenta[c]pyrazol-1(4H)-yl)ethanone, TFA], 0.261 µM; to `Cc1ccc(Cl)c(OC2CCN(C(=O)Cn3nc(C(=O)N4C[C@@H](C)O[C@@H](C)C4)c4c3CCC4)CC2)c1` [Example 93, 1-[4-(2-chloro-5-methylphenoxy)piperidin-1-yl]-2-{3-[(2R,6S)-2,6-dimethylmorpholine-4-carbonyl]-5,6-dihydrocyclopenta[c]pyrazol-1(4H)-yl}ethan-1-one], 0.00153 µM. With `CCOC(=O)c1nn(CC(=O)N2CC[C@@H](Oc3ncccc3C(F)(F)F)C[C@H]2C)c2c1[C@@H]1C[C@@H]1C2` [Example 13, (3bR,4aR)-ethyl 1-(2-((2R,4R)-2-methyl-4-((3-(trifluoromethyl)pyridin-2-yl)oxy)piperidin-1-yl)-2-oxoethyl)-3b,4,4a,5-tetrahydro-1H-cyclopropa[3,4]cyclopenta[1,2-c]pyrazole-3-carboxylate], the concentration for a half-maximal effect (EC50) is 0.021 µM. To `O=C(Cn1nc(C(=O)N2CC[C@H](O)[C@@H](F)C2)c2c1CCC2)N1CCC(C(F)(F)c2ccccc2)CC1` [Example 174, 1-(4-(Difluoro(phenyl)methyl)piperidin-1-yl)-2-(3-((3S,4S)-3-fluoro-4-hydroxypiperidine-1-carbonyl)-5,6-dihydrocyclopenta[c]pyrazol-1(4H)-yl)ethanone] belongs 0.0348 µM.

The compound `C[C@@H]1CN(C(=O)c2nn(CC(=O)N3CCC(Oc4ccc(Cl)c(F)c4)CC3)c3c2CCC3)C[C@H](C)O1` [Example 148, 1-[4-(4-chloro-3-fluorophenoxy)piperidin-1-yl]-2-{3-[(2R,6S)-2,6-dimethylmorpholine-4-carbonyl]-5,6-dihydrocyclopenta[c]pyrazol-1(4H)-yl}ethan-1-one] showed an EC50 of 0.0269 µM. On to `O=C(CO)N1CCN(C(=O)c2nn(CC(=O)N3CCC(Oc4ccccc4Cl)CC3)c3c2CCCC3)CC1` [Example 10, 1-(4-(2-chlorophenoxy)piperidin-1-yl)-2-(3-(4-(2-hydroxyacetyl)piperazine-1-carbonyl)-4,5,6,7-tetrahydro-1H-indazol-1-yl)ethan-1-one], for which the EC50 was 0.00202 µM.

In the case of `C[C@H]1C[C@H](Oc2ncccc2C(F)(F)F)CCN1C(=O)Cn1nc(C(=O)N2CCC(O)CC2)c2c1CC1CC21` (stereo in doubt) [Example 57, 2-((3bR,4aR)-3-(4-hydroxypiperidine-1-carbonyl)-3b,4,4a,5-tetrahydro-1H-cyclopropa[3,4]cyclopenta[1,2-c]pyrazol-1-yl)-1-((2S,4R)-2-methyl-4-((3-(trifluoromethyl)pyridin-2-yl)oxy)piperidin-1-yl)ethanone], the EC50 came to 0.0391 µM. To `Cc1cc(F)ccc1OC1CCN(C(=O)Cn2nc(C(=O)N3CCC(F)(CO)CC3)c3c2CCCC3)CC1` [Example 78, 2-[3-[4-fluoro-4-(hydroxymethyl)piperidine-1-carbonyl]-4,5,6,7-tetrahydroindazol-1-yl]-1-[4-(4-fluoro-2-methyl-phenoxy)-1-piperidyl]ethanone] belongs 0.00414 µM; to `C[C@@H]1CN(C(=O)c2nn(CC(=O)N3CCC(Oc4cccc(F)c4)CC3)c3c2CCC3)C[C@H](C)O1` [Example 99, 2-{3-[(2R,6S)-2,6-dimethylmorpholine-4-carbonyl]-5,6-dihydrocyclopenta[c]pyrazol-1(4H)-yl}-1-[4-(3-fluorophenoxy)piperidin-1-yl]ethan-1-one], 0.0118 µM. To `O=C(c1nn(CC(=O)N2CCC(Oc3ccccc3)C3CC32)c2c1[C@@H]1C[C@@H]1C2)N1CCC(OCCO)CC1` (single isomer, unassigned) [Example 173] belongs 0.0134 µM; to `Cc1ccccc1OC1CCN(C(=O)Cn2nc(C(=O)N3CC[C@H](O)[C@H](F)C3)c3c2CCC3)CC1` [Example 39, 2-(3-((3R,4S)-3-fluoro-4-hydroxypiperidine-1-carbonyl)-5,6-dihydrocyclopenta[c]pyrazol-1(4H)-yl)-1-(4-(o-tolyloxy)piperidin-1-yl)ethanone], 0.00876 µM. On to `C[C@@H]1CN(C(=O)c2nn(CC(=O)N3CCC(Oc4ccc(Cl)cc4)CC3)c3c2CCC3)C[C@H](C)O1` [Example 105, 1-[4-(4-chlorophenoxy)piperidin-1-yl]-2-{3-[(2R,6S)-2,6-dimethylmorpholine-4-carbonyl]-5,6-dihydrocyclopenta[c]pyrazol-1(4H)-yl}ethan-1-one], for which the EC50 stood at 0.0273 µM. To `Cc1ccccc1CC1CCN(C(=O)Cn2nc(C(=O)N3C[C@@H](C)O[C@@H](C)C3)c3c2CCC3)CC1` [Example 118, 2-{3-[(2R,6S)-2,6-dimethylmorpholine-4-carbonyl]-5,6-dihydrocyclopenta[c]pyrazol-1(4H)-yl}-1-{4-[(2-methylphenyl)methyl]piperidin-1-yl}ethan-1-one] belongs 0.0315 µM; to `C[C@@H]1CN(C(=O)c2nn(CC(=O)N3CCC(Oc4ccc(F)cc4Cl)CC3)c3c2CCC3)C[C@H](C)O1` [Example 117, 1-[4-(2-chloro-4-fluorophenoxy)piperidin-1-yl]-2-{3-[(2R,6S)-2,6-dimethylmorpholine-4-carbonyl]-5,6-dihydrocyclopenta[c]pyrazol-1(4H)-yl}ethan-1-one], 0.00703 µM; to `Cc1cc(F)ccc1OC1CCN(C(=O)Cn2nc(C(=O)N3CCO[C@@H](CO)C3)c3c2CCCCC3)CC1` [Example 86, 1-[4-(4-fluoro-2-methyl-phenoxy)-1-piperidyl]-2-[3-[(2R)-2-(hydroxymethyl)morpholine-4-carbonyl]-5,6,7,8-tetrahydro-4H-cyclohepta[c]pyrazol-1-yl]ethanone], 0.0432 µM. With `CC(=O)NC1CCN(C(=O)c2nn(CC(=O)N3CCC(Oc4ncccc4C)CC3)c3c2CCCC3)CC1` [Example 180, N-(1-(1-(2-(4-((3-Methylpyridin-2-yl)oxy)piperidin-1-yl)-2-oxoethyl)-4,5,6,7-tetrahydro-1H-indazole-3-carbonyl)piperidin-4-yl)acetamide], a half-maximal effect (EC50) was put at 0.0095 µM. To `CCOC(=O)c1nn(CC(=O)N2CCC(Oc3ccccc3C)CC2)c2c1CCCC2` [Example 47, ethyl 1-(2-oxo-2-(4-(o-tolyloxy)piperidin-1-yl)ethyl)-4,5,6,7-tetrahydro-1H-indazole-3-carboxylate] belongs 0.0304 µM; to `NC(=O)CN1CCN(C(=O)c2nn(CC(=O)N3CCC(Oc4ccccc4Cl)CC3)c3c2CCCC3)CC1` [Example 5, 2-(4-(1-(2-(4-(2-chlorophenoxy)piperidin-1-yl)-2-oxoethyl)-4,5,6,7-tetrahydro-1H-indazole-3-carbonyl)piperazin-1-yl)acetamide], 0.00147 µM. As to `CCOC(=O)c1nn(CC(=O)N2CC[C@@H](Oc3ncccc3C(F)(F)F)C[C@@H]2C)c2c1[C@@H]1C[C@@H]1C2` [Example 72, (3bR,4aR)-ethyl 1-(2-((2S,4R)-2-methyl-4-((3-(trifluoromethyl)pyridin-2-yl)oxy)piperidin-1-yl)-2-oxoethyl)-3b,4,4a,5-tetrahydro-1H-cyclopropa[3,4]cyclopenta[1,2-c]pyrazole-3-carboxylate], a half-maximal response (EC50) required 0.299 µM. To `C[C@@H]1CN(C(=O)c2nn(CC(=O)N3CCC(Oc4ccc(Cl)cc4F)CC3)c3c2CCC3)C[C@H](C)O1` [Example 154, 1-[4-(4-chloro-2-fluorophenoxy)piperidin-1-yl]-2-{3-[(2R,6S)-2,6-dimethylmorpholine-4-carbonyl]-5,6-dihydrocyclopenta[c]pyrazol-1(4H)-yl}ethan-1-one] belongs 0.0428 µM.
